In PubChem BioAssay AID504339 (National Center for Advancing Translational Sciences (NCATS), 2011):
Only a part is listed here, and it is no random draw. Results filed as inconclusive are left out. The source made the active and inactive calls. The call rests on the fitted dose curve; in most records, active means well fitted inhibition curve with a large enough effect; inconclusive means small, poorly fitted or top-dose-only effect; inactive means no such curve, though single readings can be large or run the other way.

Protein sequences, listed by entry. Tags and fused reporters are not part of them.
UniProt O75164, whole entry: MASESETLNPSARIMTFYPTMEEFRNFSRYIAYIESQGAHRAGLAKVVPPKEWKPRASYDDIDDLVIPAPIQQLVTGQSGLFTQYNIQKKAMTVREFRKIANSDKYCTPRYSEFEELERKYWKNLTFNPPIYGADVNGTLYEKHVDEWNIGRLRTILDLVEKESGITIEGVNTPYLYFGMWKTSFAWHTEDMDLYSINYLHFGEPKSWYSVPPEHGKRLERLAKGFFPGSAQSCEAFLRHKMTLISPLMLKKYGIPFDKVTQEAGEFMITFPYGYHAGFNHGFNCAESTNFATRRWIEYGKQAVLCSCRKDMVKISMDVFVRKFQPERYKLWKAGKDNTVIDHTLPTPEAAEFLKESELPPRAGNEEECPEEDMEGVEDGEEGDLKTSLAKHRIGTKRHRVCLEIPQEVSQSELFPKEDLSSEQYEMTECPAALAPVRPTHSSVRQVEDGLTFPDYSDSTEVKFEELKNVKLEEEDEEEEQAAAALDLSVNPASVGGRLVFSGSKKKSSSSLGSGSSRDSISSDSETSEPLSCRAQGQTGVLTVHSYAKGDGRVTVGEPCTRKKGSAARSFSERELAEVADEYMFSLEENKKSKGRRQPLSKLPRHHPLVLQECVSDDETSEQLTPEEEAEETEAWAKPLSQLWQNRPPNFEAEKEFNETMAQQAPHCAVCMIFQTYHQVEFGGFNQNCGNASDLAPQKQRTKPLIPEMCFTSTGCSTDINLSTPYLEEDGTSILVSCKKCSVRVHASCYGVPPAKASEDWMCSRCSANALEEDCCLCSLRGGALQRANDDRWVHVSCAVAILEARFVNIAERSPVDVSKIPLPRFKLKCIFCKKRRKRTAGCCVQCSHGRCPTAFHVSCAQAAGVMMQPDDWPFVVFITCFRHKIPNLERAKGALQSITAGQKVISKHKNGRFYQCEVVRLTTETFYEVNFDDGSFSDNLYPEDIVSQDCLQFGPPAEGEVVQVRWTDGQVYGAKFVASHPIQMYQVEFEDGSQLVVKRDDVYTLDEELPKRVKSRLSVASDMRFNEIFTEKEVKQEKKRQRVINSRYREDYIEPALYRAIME

Target: Lysine-specific demethylase 4A (Homo sapiens) (UniProt O75164)
Assay: qHTS Assay for Inhibitors of JMJD2A-Tudor Domain; further: nearly all actives have a fitted effect of over 50% in size
Conditions: AlphaScreen JMJD2A-Tudor / H3K4me3 peptide binding; at 114 µM (top of the series)
On the % scale 0 is the no-effect control and ±100 the full control effect.

Compound | activity change, negative = inhibition
COP1(=S)c2c(C)nn(CCC#N)c2N=C(c2ccc(F)cc2)N1C (stereo unspecified) | inactive: -11%
